Assay [1] has as its target 5-hydroxytryptamine receptor 2A (Rattus norvegicus, UniProt P14842).
Assay [2] concerns the target 5-hydroxytryptamine receptor 2C (Homo sapiens, UniProt P28335).

The chains behind the UniProt entries cited, without tags or fusion partners. Where a name states a change or a piece, a line headed by the entry shows the natural chain unless it says otherwise.
UniProt P14842, whole entry: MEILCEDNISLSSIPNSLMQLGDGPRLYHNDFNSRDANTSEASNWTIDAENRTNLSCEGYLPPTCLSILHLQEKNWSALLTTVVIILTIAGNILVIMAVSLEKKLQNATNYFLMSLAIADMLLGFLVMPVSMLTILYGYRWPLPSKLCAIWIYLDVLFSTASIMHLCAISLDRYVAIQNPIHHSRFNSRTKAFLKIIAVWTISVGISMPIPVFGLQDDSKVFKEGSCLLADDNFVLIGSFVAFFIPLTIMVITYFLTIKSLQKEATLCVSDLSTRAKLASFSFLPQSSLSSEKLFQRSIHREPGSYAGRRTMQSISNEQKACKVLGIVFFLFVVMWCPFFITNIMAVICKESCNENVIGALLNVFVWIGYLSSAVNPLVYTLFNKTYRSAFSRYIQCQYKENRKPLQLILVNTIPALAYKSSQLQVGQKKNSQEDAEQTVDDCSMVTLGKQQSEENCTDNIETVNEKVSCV
UniProt P28335: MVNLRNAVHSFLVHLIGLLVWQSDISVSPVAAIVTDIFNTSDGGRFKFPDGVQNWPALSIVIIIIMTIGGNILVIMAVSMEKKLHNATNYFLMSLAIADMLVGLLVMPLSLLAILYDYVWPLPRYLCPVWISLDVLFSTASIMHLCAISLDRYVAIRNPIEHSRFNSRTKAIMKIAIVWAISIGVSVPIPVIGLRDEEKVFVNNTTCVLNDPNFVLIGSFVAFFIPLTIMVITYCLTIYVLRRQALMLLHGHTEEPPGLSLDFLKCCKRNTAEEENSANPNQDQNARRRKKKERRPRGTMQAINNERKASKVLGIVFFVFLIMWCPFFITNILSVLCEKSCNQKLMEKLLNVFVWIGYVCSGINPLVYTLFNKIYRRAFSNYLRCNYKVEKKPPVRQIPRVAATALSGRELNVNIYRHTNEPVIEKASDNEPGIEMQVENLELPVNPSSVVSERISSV

On to `Cc1nc2sccn2c(=O)c1CCN1CCC(=C(c2ccc(F)cc2)c2ccc(F)cc2)CC1`, for which the affinity in assay [1] corresponds to a Ki of 0.29 nM. This counts as sub-nanomolar.
On the same count and under the same terms, to `CN1C[C@H](C(=O)N[C@]2(C)O[C@@]3(O)[C@@H]4CCCN4C(=O)[C@H](Cc4ccccc4)N3C2=O)C=C2c3cccc4[nH]cc(c34)C[C@H]21` [12'-hydroxy-2'-methyl-5'alpha-(phenylmethyl)ergotaman-3',6',18-trione] belongs 1.41 nM.
`CN1C[C@@H](NS(=O)(=O)N(C)C)C[C@@H]2c3cccc4c3c(cn4C)C[C@H]21` [MESULERGINE]: the affinity in assay [2] corresponds to a Ki of 1.69 nM. That is a single-digit nanomolar value.
With `CNS(=O)(=O)Cc1ccc2[nH]cc(CCN(C)C)c2c1` [Sumax], the Ki in assay [1] is greater than 10000 nM.

In general, Ki refers to the equilibrium dissociation constant of an inhibitor or competing ligand from its target. A higher Ki goes with a looser hold on the target.

These data come from BindingDB's records for doi:10.1016/s0028-3908(97)00049-x (Roche Bioscience, 1997).
